## Measured properties of organic chemicals

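These are experimental values that the OPERA curators gathered from public databases to train and test their QSAR models. A listed value is a point estimate from one report or more. Conditions of the individual experiments are not part of the data. The measured form (salt, isomer or mixture) is not always the one drawn. Unmarked limits or estimates from the upstream databases cannot be ruled out.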

The melting point is given in degrees Celsius.
The boiling point refers to atmospheric pressure (760 mmHg), by the definition of the set.
The octanol-water partition coefficient is given as log10; larger values mean a more lipophilic compound.
Water solubility is log10 of mol/L, nominally at 25 °C; higher is more soluble.
Vapor pressure is log10 of mmHg; the set covers 15 to 30 °C, mostly 20 to 25 °C.
The Henry's law constant is on a log10 scale in atm·m3/mol (set defined at 25 °C); higher favours air over water.
fu is the fraction unbound in human plasma, from 0 to 1.
Clint is human hepatic intrinsic clearance in µL/min per million cells; 0 means that no clearance was seen.

{"smiles": "Cc1cc(C)c(N)c(C)c1N", "name": "1,3-Benzenediamine, 2,4,6-trimethyl-", "logP (octanol/water)": "1.05", "vapor pressure (log10 mmHg)": "-4.056"}
{"smiles": "O=S(=O)([N-]S(=O)(=O)C(F)(F)F)C(F)(F)F.[Li+]", "name": "Lithium bis[(trifluoromethyl)sulfonyl]azanide", "logP (octanol/water)": "-1.325", "vapor pressure (log10 mmHg)": "-7.108"}
{"smiles": "C(OCC1CO1)C(COCC1CO1)OCC1CO1", "stereo": "stereo unspecified", "MP (°C)": "-50.15", "bp (°C)": "280.6", "vapor pressure (log10 mmHg)": "-2.442"}
{"smiles": "COP(=O)(NC(C)=O)SC", "stereo": "stereo unspecified", "name": "Acephate", "fu": "0.8684", "Clint (µL/min/10^6 cells)": "0"}
{"smiles": "COc1cc([C@@H]2c3cc4c(c(O)c3C[C@H]3COC(=O)[C@@H]32)OCO4)cc(OC)c1O", "name": "alpha-Peltatin", "MP (°C)": "236", "log S (log10 mol/L)": "-4.125"}
{"smiles": "C=CC(=O)N(C)C", "name": "N,N-Dimethylacrylamide", "logP (octanol/water)": "-0.24", "vapor pressure (log10 mmHg)": "-0.312"}
{"smiles": "Nc1ccc(Cl)cc1C(=O)c1ccccc1", "name": "2-Amino-5-chlorobenzophenone", "logP (octanol/water)": "3.16", "log S (log10 mol/L)": "-4.888"}
{"smiles": "Cc1cc(C)c(C(=O)P(=O)(C(=O)c2c(C)cc(C)cc2C)c2ccccc2)c(C)c1", "name": "(Phenylphosphoryl)bis[(2,4,6-trimethylphenyl)methanone]", "logP (octanol/water)": "5.77", "vapor pressure (log10 mmHg)": "-8.625"}
{"smiles": "CC(C)Oc1cc(-n2nc(C(C)(C)C)oc2=O)c(Cl)cc1Cl", "name": "Oxadiazon", "fu": "0.00307", "Clint (µL/min/10^6 cells)": "0"}
{"smiles": "C[C@]12CCC(=O)C[C@@H]1CC[C@@H]1[C@@H]2CC[C@]2(C)C(=O)CC[C@@H]12", "name": "Dihydroandrostendione", "MP (°C)": "142", "log S (log10 mol/L)": "-3.76"}
{"smiles": "CCN(C(=O)n1nnn(-c2ccccc2Cl)c1=O)C1CCCCC1", "name": "Fentrazamide", "logP (octanol/water)": "3.6", "log H (log10 atm·m3/mol)": "-10.16"}
{"smiles": "CCC1(CC)C(=O)NCC(C)C1=O", "stereo": "stereo unspecified", "name": "Methyprylon", "log S (log10 mol/L)": "-0.382", "fu": "0.4"}
{"smiles": "CSC1=N[C@@](C)(c2ccccc2)C(=O)N1Nc1ccccc1", "name": "Fenamidone", "log S (log10 mol/L)": "-4.6", "Clint (µL/min/10^6 cells)": "17.74"}
{"smiles": "CCCCC(CC)C(=O)OOC(C)(C)CC(C)(C)C", "stereo": "stereo unspecified", "name": "2,4,4-Trimethylpentan-2-yl 2-ethylhexaneperoxoate", "MP (°C)": "-28", "log S (log10 mol/L)": "-5.95"}
{"smiles": "N#Cc1cc(Br)c(O)c(Br)c1", "name": "Bromoxynil", "logP (octanol/water)": "2.75", "Clint (µL/min/10^6 cells)": "7.87"}
{"smiles": "C[C@@]12CCCCC[C@@H](Cc3ccc(O)cc31)[C@@H]2N", "name": "Dezocine", "logP (octanol/water)": "3.3", "log S (log10 mol/L)": "-4.244"}
{"smiles": "CCN(CCCl)c1ccc(N=Nc2c(Cl)cc([N+](=O)[O-])cc2Cl)c(C)c1", "MP (°C)": "125.5", "log S (log10 mol/L)": "-7.749"}
{"smiles": "Cc1ccc(N)cc1Cl", "name": "3-chloro-4-methylaniline", "fu": "0.145", "Clint (µL/min/10^6 cells)": "65.3"}
{"smiles": "O=c1sc2ccccc2c(O)c1C1CC(c2ccc(-c3ccc(Br)cc3)cc2)Cc2ccccc21", "stereo": "stereo unspecified", "name": "Difethialone", "logP (octanol/water)": "5.17", "log S (log10 mol/L)": "-6.14", "vapor pressure (log10 mmHg)": "-6.256"}
{"smiles": "COc1ccc2c3c1O[C@H]1[C@@H](O)C=C[C@H]4[C@@H](C2)N(C)CC[C@@]341", "name": "Codeine", "fu": "0.945", "Clint (µL/min/10^6 cells)": "24.53"}
{"smiles": "CC(C=O)Cc1ccc2c(c1)OCO2", "stereo": "stereo unspecified", "name": "3-(3,4-Methylenedioxyphenyl)-2-methylpropanal", "MP (°C)": "-20.07", "logP (octanol/water)": "2.4", "log S (log10 mol/L)": "-2.313", "vapor pressure (log10 mmHg)": "-3.16"}
{"smiles": "C[Si](Cn1cncn1)(c1ccc(F)cc1)c1ccc(F)cc1", "name": "Flusilazole", "log H (log10 atm·m3/mol)": "-8.574", "fu": "0.02925", "Clint (µL/min/10^6 cells)": "6.96"}
{"smiles": "O=S(=O)([O-])C(F)(F)C(F)(F)C(F)(F)C(F)(F)F.[K+]", "name": "Potassium perfluorobutanesulfonate", "log S (log10 mol/L)": "-1.509", "fu": "0.01933"}
{"smiles": "O=C(O)C(F)(F)C(F)(F)C(F)(F)C(F)(F)C(F)(F)F", "name": "Perfluorohexanoic acid", "log S (log10 mol/L)": "-4.03", "log H (log10 atm·m3/mol)": "-5.038", "Clint (µL/min/10^6 cells)": "0"}
{"smiles": "C=CCOCC1CO1", "stereo": "stereo unspecified", "name": "Allyl glycidyl ether", "logP (octanol/water)": "0.45", "vapor pressure (log10 mmHg)": "0.614"}
{"smiles": "Clc1ccc(-c2c(Cl)ccc(Cl)c2Cl)c(Cl)c1", "name": "2,2',3,4',6-Pentachlorobiphenyl", "logP (octanol/water)": "6.13", "vapor pressure (log10 mmHg)": "-3.128"}
{"smiles": "CC[C@@H](C(=O)O)[C@@H]1O[C@@H]([C@@H](C)[C@H](O)[C@H](C)C(=O)[C@H](CC)[C@H]2O[C@]3(C=C[C@@H](O)[C@]4(CC[C@@](C)([C@H]5CC[C@](O)(CC)[C@H](C)O5)O4)O3)[C@H](C)C[C@@H]2C)[C@@H](C)C[C@@H]1C", "name": "Narasin", "MP (°C)": "98", "log S (log10 mol/L)": "-3.879"}
{"smiles": "Clc1cc2c(oc3cc(Cl)c(Cl)c(Cl)c32)c(Cl)c1Cl", "name": "1,2,3,6,7,8-Hexachlorodibenzofuran", "MP (°C)": "233", "log S (log10 mol/L)": "-10.33", "vapor pressure (log10 mmHg)": "-7.255"}
{"smiles": "[NH4+].n1n[nH]c([N-]c2nnn[nH]2)n1", "name": "Bis[1(2)H-tetrazol-5-yl]amine monoammonium salt", "logP (octanol/water)": "-0.196", "vapor pressure (log10 mmHg)": "-11.01"}
{"smiles": "Brc1cc(Br)c(OCCOc2c(Br)cc(Br)cc2Br)c(Br)c1", "name": "1,2-Bis(2,4,6-tribromophenoxy)ethane", "MP (°C)": "222", "logP (octanol/water)": "8.9"}
{"smiles": "O=C(NC(=O)c1c(F)cccc1F)Nc1ccc(OC(F)(F)C(F)OC(F)(F)F)c(Cl)c1", "stereo": "stereo unspecified", "name": "Novaluron", "vapor pressure (log10 mmHg)": "-6.921", "log H (log10 atm·m3/mol)": "-4.705", "Clint (µL/min/10^6 cells)": "2.87"}
{"smiles": "C=CCc1ccc(OC)cc1", "name": "Estragole", "MP (°C)": "11.9", "logP (octanol/water)": "3.4"}
{"smiles": "COC(=O)Nc1nc2ccccc2[nH]1", "name": "Carbendazim", "log S (log10 mol/L)": "-4.1", "fu": "0.4633"}

4 of these entries, quoted again:

{"smiles": "O=C(NC(=O)c1c(F)cccc1F)Nc1ccc(OC(F)(F)C(F)OC(F)(F)F)c(Cl)c1", "stereo": "stereo unspecified", "name": "Novaluron", "vapor pressure (log10 mmHg)": "-6.921", "log H (log10 atm·m3/mol)": "-4.705", "Clint (µL/min/10^6 cells)": "2.87"}
{"smiles": "CCN(CCCl)c1ccc(N=Nc2c(Cl)cc([N+](=O)[O-])cc2Cl)c(C)c1", "MP (°C)": "125.5", "log S (log10 mol/L)": "-7.749"}
{"smiles": "C(OCC1CO1)C(COCC1CO1)OCC1CO1", "stereo": "stereo unspecified", "MP (°C)": "-50.15", "bp (°C)": "280.6", "vapor pressure (log10 mmHg)": "-2.442"}
{"smiles": "C=CC(=O)N(C)C", "name": "N,N-Dimethylacrylamide", "logP (octanol/water)": "-0.24", "vapor pressure (log10 mmHg)": "-0.312"}

Values as listed in the OPERA 2.9 repository of K. Mansouri.